# Measured values published in PubChem BioAssay (EPA / NIEHS).
# The list shows a part of the results, in another mix than the full data. Activity calls are given as the source filed them. The calls were made as follows: active = hit-call score of the fitted dose curve at least 0.9, where 1 is the maximum; inactive = score below 0.9.
# What was measured:
# [1] = BSK_3C_SRB: Viability Assessment in the BioMAP Diversity Plus: 3C Assay (AID 2283023); details: primary human endothelial cells (HUVEC);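 also: cells read 24 h after compound dosing; fitted both ways against DMSO so a hit may be signal rise or drop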
# How it was run: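 Overt cytotoxicity is gauged in parallel confluent HUVEC cultures by SRB total-protein staining at the time of biomarker measurement, 24 h after dosing. Gain or loss of signal is fitted versus DMSO.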
# [2] = read-out: Matrix Metallopeptidase 1 (MMP1), MMP1 (gene 4312); test: BSK_BE3C_MMP1: BioMAP Diversity Plus: BE3C Assay for Matrix Metallopeptidase 1 (MMP1) Biomarker Activity (AID 2283024); details: actives raise or lower the signal; primary human bronchial epithelial cells
# How it was run: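 ELISA read-out of MMP1 in human lung bronchial epithelial primary cultures, 24 h post-dose; bidirectional curve fit vs DMSO baseline, gain or loss of signal scored.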
# [3] = BSK_3C_Vis: BioMAP Diversity Plus: 3C Assay for Morphology Visualization (AID 2283025); details: primary human endothelial cells (HUVEC);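 also: fitted both ways so gain or loss versus DMSO counts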
# How it was run: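 HUVEC, 3C system; light microscopy of morphology at 24 h post-dose. Bidirectional fit vs DMSO baseline. Secondary readout, background-control function.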
# [4] = read-out: Pselectin, SELP (gene 6403); test: BSK_4H_Pselectin: BioMAP Diversity Plus: 4H Assay for Pselectin Biomarker Activity (AID 2283026); details: actives raise or lower the signal; primary human endothelial cells (HUVEC)
# How it was run: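 HUVEC, 24 h chemical exposure; P-selectin read by ELISA. Bidirectional curve fit vs DMSO baseline; gain or loss of signal scored.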
# [5] = BSK_4H_SRB: Viability Assessment in the BioMAP Diversity Plus: 4H Assay (AID 2283027); details: primary human endothelial cells (HUVEC);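 also: cells exposed to compound for 24 h before staining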;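 as to AC50: curves fitted both ways versus DMSO so AC50 may be loss or gain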
# How it was run: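 HUVEC, 24 h post-dose; 10% TCA fix, 0.1% SRB stain, A560 nm. Total protein = overt cytotoxicity, parallel to biomarker read. Bidirectional fit vs DMSO baseline.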
# [6] = BSK_BE3C_SRB: Viability Assessment in the BioMAP Diversity Plus: BE3C Assay (AID 2283028); details: primary human bronchial epithelial cells
# How it was run: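 SRB total-protein staining (0.1%, after TCA fixation) of chemically dosed human bronchial epithelial primary cells at 24 h; DMSO serves as the negative control for bidirectional curve fitting.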
# [7] = read-out: Thrombomodulin, THBD (gene 7056); test: BSK_3C_Thrombomodulin: BioMAP Diversity Plus: 3C Assay for Thrombomodulin Biomarker Activity (AID 2283029); details: actives raise or lower the signal; primary human endothelial cells (HUVEC)
# How it was run: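 HUVEC, 3C conditions; compound 24 h; thrombomodulin by ELISA; bidirectional curve fit vs DMSO baseline; parallel SRB total-protein staining for cytotoxicity.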
# [8] = read-out: Urokinase-type plasminogen activator receptor (uPAR), PLAUR (gene 5329); test: BSK_4H_uPAR: BioMAP Diversity Plus: 4H Assay for Urokinase-type plasminogen activator receptor (uPAR) Biomarker Activity (AID 2283030); details: actives raise or lower the signal; primary human endothelial cells (HUVEC)
# Experimental: BSK_4H is a cell-based, multiplexed-readout assay that uses umbilical vein endothelium, a human vascular primary cell, with measurements taken at 24 hours after chemical dosing in a 96-well plate.BSK_4HAR is an assay component measured in the BSK_4H assay. It measures uPAR antibody related to regulation of gene expression using ELISA technology.Data from the assay component BSK_4HAR was analyzed into 1 assay endpoint. This assay endpoint, BSK_4HAR, was analyzed with bidirectional fitting relative to DMSO as the negative control and baseline of activity. Using a type of binding reporter, gain or loss-of-signal activity can be used to understand changes in the signaling as they relate to the gene PLAUR. Furthermore, this assay endpoint can be referred to as a primary readout, because this assay has produced multiple assay endpoints where this one serves a signaling function. To generalize the intended target to other relatable targets, this assay endpoint is annotated to the cytokine intended target family, where the subfamily is plasmogen activator.
# The levels of cell surface (or secreted, indicated by the prefix "s") biomarker endpoints were measured by ELISA. Overt cytotoxicity to cells in confluent adherent cultures (all systems other than the BT system) was assessed by measuring total protein levels using sulforhodamine B (SRB) staining in parallel cultures at the time of biomarker measurements, indicated as SRB endpoints. For proliferation assays for adherent cell types, individual cell types are cultured at sub-confluence and relative cell numbers quantified by SRB staining at time points optimized for each system (48 h: 3C and CASM3C systems; 72 h: BT and HDF3CGF systems; 96 h: SAg system). SRB was performed by staining cells with 0.1% SRB after fixation with 10% TCA and reading wells at 560 nm.Viability and proliferation of PBMC (T cells) was quantified by Alamar Blue reduction for the SAg and BT systems. For PBMC viability (referred to as PBMC Cytotoxicity within the assay endpoint names), cells were plated (75,000/well in a 96-well plate) and then chemical samples added for 1 h before addition of activators, SEB and TSST-1 (20 ng/mL final concentration each). Cells were incubated for 90 h. Then, Alamar Blue (20 uL/well) (Invitrogen, Cat DAL1100) was added for 6 h, and the plates were read with a fluorescence microplate reader at 546/580 nm (excitation/emission). For PBMC proliferation, cells were plated and activated as above but incubated for only 16 h prior to addition of Alamar Blue. Plates were read after 6 h.
# [9] = read-out: Vascular endothelial growth factor receptor 2 (Homo sapiens) (UniProt P35968); test: BSK_4H_VEGFRII: BioMAP Diversity Plus: 4H Assay for Vascular endothelial growth factor receptor 2 (VEGFR2) Biomarker Activity (AID 2283031); details: actives raise or lower the signal; primary human endothelial cells (HUVEC)
# How it was run: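 In this multiplexed HUVEC system, biomarker ELISA was performed after 24 h chemical exposure. Parallel SRB staining (TCA fixation, 560 nm) tracked cytotoxicity; DMSO served as baseline.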
# [10] = read-out: Human Leukocyte Antigen - DR isotype (HLADR), HLA-DRA (gene 3122); test: BSK_BE3C_HLADR: BioMAP Diversity Plus: BE3C Assay for Human Leukocyte Antigen - DR isotype (HLADR) Biomarker Activity (AID 2283032); details: actives raise or lower the signal; primary human bronchial epithelial cells
# How it was run: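 Primary human bronchial epithelial cells (BE3C); 24 h chemical exposure; HLA-DR by ELISA; bidirectional curve fit vs DMSO baseline.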
SMILES,outcome [1],outcome [2],outcome [3],outcome [4],outcome [5],outcome [6],outcome [7],outcome [8],outcome [9],outcome [10],AC50 [7],AC50 [10],AC50 [5]
Cc1c([N+](=O)[O-])cccc1[N+](=O)[O-],inactive,inactive,inactive,inactive,inactive,inactive,inactive,inactive,inactive,inactive,,,
Cc1ccc([N+](=O)[O-])c([N+](=O)[O-])c1,inactive,inactive,inactive,inactive,inactive,inactive,,inactive,inactive,,active: 0.05 µM,active: 25.4 µM,
CC(C)OP(C)(=O)OC(C)C,inactive,inactive,inactive,inactive,,inactive,inactive,inactive,inactive,inactive,,,active: 20 µM
O=[N+]([O-])c1cccc([N+](=O)[O-])c1,inactive,inactive,inactive,inactive,inactive,inactive,inactive,inactive,inactive,inactive,,,
Cc1ccc([N+](=O)[O-])cc1[N+](=O)[O-],inactive,inactive,inactive,inactive,inactive,inactive,inactive,inactive,inactive,inactive,,,
Cc1cccc([N+](=O)[O-])c1[N+](=O)[O-],inactive,inactive,inactive,inactive,inactive,inactive,inactive,inactive,inactive,inactive,,,
